B1: Ultraviolet-B receptor UVR8 (Arabidopsis thaliana (Mouse-ear cress)), Q9FN03 (parent)
chain: MAEDMAADEVTAPPRKVLIISAGASHSVALLSGDIVCSWGRGEDGQLGHGDAEDRPSPTQLSALDGHQIVSVTCGADHTVAYSQSGMEVYSWGWGDFGRLGHGNSSDLFTPLPIKALHGIRIKQIACGDSHCLAVTMEGEVQSWGRNQNGQLGLGDTEDSLVPQKIQAFEGIRIKMVAAGAEHTAAVTEDGDLYGWGWGRYGNLGLGDRTDRLVPERVTSTGGEKMSMVACGWRHTISVSYSGALYTYGWSKYGQLGHGDLEDHLIPHKLEALSNSFISQISGGWRHTMALTSDGKLYGWGWNKFGQVGVGNNLDQCSPVQVRFPDDQKVVQVSCGWRHTLAVTERNNVFAWGRGTNGQLGIGESVDRNFPKIIEALSVDGASGQHIESSNIDPSSGKSWVSPAERYAVVPDETGLTDGSSKGNGGDISVPQTDVKRVRI
partner: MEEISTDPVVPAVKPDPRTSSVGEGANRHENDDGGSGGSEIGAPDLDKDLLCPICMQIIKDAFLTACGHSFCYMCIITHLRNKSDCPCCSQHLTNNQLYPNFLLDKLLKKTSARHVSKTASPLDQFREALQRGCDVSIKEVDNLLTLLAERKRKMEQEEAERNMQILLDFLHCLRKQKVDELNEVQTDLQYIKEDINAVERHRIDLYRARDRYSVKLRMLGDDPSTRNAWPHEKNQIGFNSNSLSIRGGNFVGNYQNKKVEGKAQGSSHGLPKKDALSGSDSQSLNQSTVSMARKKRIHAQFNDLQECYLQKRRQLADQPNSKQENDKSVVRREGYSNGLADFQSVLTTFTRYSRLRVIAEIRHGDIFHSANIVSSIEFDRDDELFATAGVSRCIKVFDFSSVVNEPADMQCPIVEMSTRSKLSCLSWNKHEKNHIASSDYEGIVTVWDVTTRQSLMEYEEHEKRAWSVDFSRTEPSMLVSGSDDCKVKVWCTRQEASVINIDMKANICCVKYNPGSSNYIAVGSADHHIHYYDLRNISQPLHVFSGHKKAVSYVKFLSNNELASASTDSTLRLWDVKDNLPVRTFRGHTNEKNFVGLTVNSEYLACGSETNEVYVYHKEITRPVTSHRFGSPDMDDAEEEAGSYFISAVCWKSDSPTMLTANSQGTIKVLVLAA
B2: E3 ubiquitin-protein ligase COP1 (Arabidopsis thaliana (Mouse-ear cress)), P43254 (parent)
chain: B1 partner
partner: B1 chain

Variants of: B1
Conditions: with cop1_arath COP1, P43254

Variant	effect of a mutation on the interaction
MAEDMAADEVTAPPRKVLIISAGASHSVALLSGDIVCSWGRGEDGQLGHGDAEDRPSPTQLSALDGHQIVSVTCGADHTVAYSQSGMEVYSWGWGDFGRLGHGNSSDLFTPLPIKALHGIRIKQIACGDSHCLAVTMEGEVQSWSRNQNGQLGLGDTEDSLVPQKIQAFEGIRIKMVAAGAEHTAAVTEDGDLYGWGWGRYGNLGLGDRTDRLVPERVTSTGGEKMSMVACGWRHTISVSYSGALYTYGWSKYGQLGHGDLEDHLIPHKLEALSNSFISQISGGWRHTMALTSDGKLYGWGWNKFGQVGVGNNLDQCSPVQVRFPDDQKVVQVSCGWRHTLAVTERNNVFAWGRGTNGQLGIGESVDRNFPKIIEALSVDGASGQHIESSNIDPSSGKSWVSPAERYAVVPDETGLTDGSSKGNGGDISVPQTDVKRVRI [G145S]	disrupting interaction
MAEDMAADEVTAPPRKVLIISAGASHSVALLSGDIVCSWGRGEDGQLGHGDAEDRPSPTQLSALDGHQIVSVTCGADHTVAYSQSGMEVYSWGWGDFGRLGHGNSSDLFTPLPIKALHGIRIKQIACGDSHCLAVTMEGEVQSWGRNQNGQLGLGDTEDSLVPQKIQAFEGIRIKMVAAGAEHTAAVTEDGDLYGWGWGRYRNLGLGDRTDRLVPERVTSTGGEKMSMVACGWRHTISVSYSGALYTYGWSKYGQLGHGDLEDHLIPHKLEALSNSFISQISGGWRHTMALTSDGKLYGWGWNKFGQVGVGNNLDQCSPVQVRFPDDQKVVQVSCGWRHTLAVTERNNVFAWGRGTNGQLGIGESVDRNFPKIIEALSVDGASGQHIESSNIDPSSGKSWVSPAERYAVVPDETGLTDGSSKGNGGDISVPQTDVKRVRI [G202R]	disrupting interaction

Variants of: B2
Conditions: with uvr8_arath UVR8, Q9FN03

Variant	effect of a mutation on the interaction
G608R	disrupting interaction

— IntAct's records for PubMed 19165148
